Antibody variant affinities, Ab-14 light chain, assay 1

The target is the same throughout: PDVDLGDISGINAS, from the HR2 region of SARS-CoV-2 spike.

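The parent was found by panning a naive human phage display library on the peptide. In library AAYL50, one, two or three CDR residues were substituted; doubles and triples were drawn at random. The scFvs were displayed on barcoded MATa yeast, the peptide on MATalpha yeast. Binding brings cells together so that they mate, and sequencing counts the barcode pairs among the diploids. Scores were corrected for input abundance and mapped to Kd with protein pairs of known affinity run in the same pool. Mating was done three times.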

The variants keep the heavy chain, the linker and the frameworks of Ab-14 (scFv order VH, a (GGGGS)3 linker, VL).
VH: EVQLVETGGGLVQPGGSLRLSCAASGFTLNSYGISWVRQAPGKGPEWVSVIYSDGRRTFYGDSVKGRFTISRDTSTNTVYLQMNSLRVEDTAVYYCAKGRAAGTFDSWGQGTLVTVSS
VL: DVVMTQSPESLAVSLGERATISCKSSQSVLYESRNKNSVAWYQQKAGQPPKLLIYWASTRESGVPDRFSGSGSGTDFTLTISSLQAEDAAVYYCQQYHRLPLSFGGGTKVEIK

Changes read parent residue, position, new residue, counted from the first residue of the VL shown.
Numbers give log10(Kd / nM), so 0 is 1 nM and 3 is 1 µM. Smaller is tighter.
Where no diploid with the target was found in that replicate, the entry reads "ND": below detection, most likely a poor binder, though not proof of it.
For reference, the parent read 0.65 as the reference entry and 1.68 as a member of this library.
Three control strains display no target. For library AAYL50, 18% of the pairings with them gave a signal, with a median of 4.19 and one signal in twenty below 2.99, so weak values seen in few replicates may be background. For each scFv, signals with the empty controls are counted beside the result.

The variant S33C+T59G+R60D gave 3.89, ND, 3.03 (controls 2 of 9).
The variant S28D+N35L+R99P gave 4.78, 3.87, 4.35 (controls 6 of 9).
The variant K36M+W56C+Q96N gave ND, ND, 1.47 (controls 1 of 9).
The variant E61P+S62R+H98I gave 2.57, 3.71, 2.93 (controls 0 of 9).
The variant S28A+E32N+L100A gave 2.50, 2.43, 2.64 (controls 3 of 9).
The variant K24D+E61C+L100G gave 0.95, 1.50, 1.18 (controls 0 of 9).
The variant K24Y+S26D+S103C gave 1.38, 1.42, 1.40 (controls 1 of 9).
The variant S26T+V29T+Q96Y gave ND, ND, ND (controls 2 of 9).
The variant S26T+S28F+R99D gave ND, ND, ND (controls 0 of 9).
The variant S26Q+N37E+W56V gave ND, ND, ND (controls 5 of 9).
The variant A57M+S62I+Y97N gave ND, ND, ND (controls 1 of 9).
The variant E32P+S62P+S103Y gave 2.10, 2.20, 2.37 (controls 1 of 9).
The variant Q27P+V29N+T59H gave 1.89, 1.94, 2.14 (controls 4 of 9).
The variant L30G+A57Q+Q95S gave 2.44, ND, ND (controls 2 of 9).
The variant K24E+E32I gave 1.22, 1.33, 1.15 (controls 3 of 9).
The variant Y31R+T59M+E61G gave ND, 3.60, ND (controls 2 of 9).
The variant R34C+W56T gave 0.36, 0.79, 0.54 (controls 1 of 9).
The variant K24D+E61G+L100Y gave ND, ND, ND (controls 0 of 9).
The variant R34P+S58C gave ND, ND, ND (controls 0 of 9).
The variant K24L+R60A+S62L gave 3.72, 4.93, ND (controls 2 of 9).
The variant K24A+S28V+H98V gave 2.39, 2.01, 3.05 (controls 1 of 9).
The variant S28N+N37G+L102Y gave 3.18, 2.75, 2.83 (controls 1 of 9).
The variant Q27R gave 1.16, 1.25, 1.40 (controls 0 of 9).
The variant E32Q+V39Q+S62A gave ND, ND, 4.00 (controls 1 of 9).
The variant S28P gave 0.90, 1.06, 0.69 (controls 1 of 9).
The variant A57C+S58F+R99I gave 4.13, 4.23, ND (controls 4 of 9).
The variant V39F+S58N+L102P gave 4.10, ND, ND (controls 3 of 9).
The variant S28D+L30Y+N35S gave 1.37, 1.49, 1.62 (controls 6 of 9).
The variant Q27E+V39L+W56C gave 2.82, 2.99, 3.19 (controls 4 of 9).
The variant K24R+Q96H gave 3.39, 2.94, 2.81 (controls 1 of 9).
The variant E32L+E61A gave 1.48, 1.69, 1.42 (controls 0 of 9).
The variant Q27Y+S28C+L100I gave ND, ND, ND (controls 2 of 9).
The variant W56A+R60I gave 0.98, 1.02, 0.88 (controls 0 of 9).
The variant K24M+Q96N+P101G gave 2.49, 2.20, 3.29 (controls 3 of 9).
The variant K24I+N35S+Q96N gave 2.78, 2.86, 2.47 (controls 1 of 9).

Again, the first 3 entries without any signal:

changes	log10 Kd, replicates	signal with controls
S26T+V29T+Q96Y	ND, ND, ND	2/9
S26T+S28F+R99D	ND, ND, ND	0/9
S26Q+N37E+W56V	ND, ND, ND	5/9

Reference: Engelhart et al. 2022, doi:10.1038/s41597-022-01779-4. File: FLAb, binding data.